We go through one compound from PMC6212409, “Ginsentides: Cysteine and Glycine-rich Peptides from the Ginseng Family with Unusual Disulfide Connectivity” (2018).

The nature of one series: Heat stability assay. As to conditions: 10 μg in 100 μL distilled water, RP-HPLC relative peak area vs room-temperature control, mean, n = 3.
Another series deals with red blood cells. Nature of the series: Hemolytic assay. The following applies: 1% suspension in PBS, concentrations up to 100 µM, 37 °C, 1 h, absorbance 415 nm, n = 3.
Another series concerns Huh7 cells. Briefly: Cell viability assay (MTT). The following applies: concentrations up to 100 µM, 24 h, absorbance 550 nm, n = 3.
The next series is described as follows: Acid stability assay. As to conditions: 0.2 N HCl (0.2 M HCl), 37 °C, 2 h; 10 μg in 100 μL; RP-HPLC vs control without acid; n = 3.
The test system of a further series is THP-1 cells. Nature of the series: Immunogenicity assay (cytokine ELISA). As to conditions: 6 h treatment, ELISA of supernatant, LPS positive control, n = 3.

`CC(C)C[C@@H]1NC(=O)[C@@H]2CSSC[C@@H]3NC(=O)[C@H](Cc4c[nH]c5ccccc45)NC(=O)[C@H](C)NC(=O)CNC(=O)CNC(=O)[C@H](CO)NC(=O)[C@H](CCCCN)NC(=O)[C@@H](N)CSSC[C@@H]4NC(=O)[C@H](CSSC[C@H](NC(=O)[C@H](Cc5ccccc5)NC(=O)CNC(=O)[C@H](C(C)C)NC1=O)C(=O)N[C@@H](Cc1ccc(O)cc1)C(=O)NCC(=O)N[C@@H]([C@@H](C)O)C(=O)NCC(=O)N[C@H](C(=O)O)CSSC[C@H](NC(=O)[C@H](CC(N)=O)NC(=O)CNC4=O)C(=O)NCC(=O)N2)NC(=O)CNC(=O)[C@H](Cc1c[nH]cn1)NC(=O)[C@@H]1CCCN1C(=O)[C@H](CC(=O)O)NC(=O)[C@H](Cc1ccccc1)NC(=O)CNC3=O`: in “Heat stability assay” (100 °C for 30 min), the degradation after heating entry was “less than 10%”. The compound further gave a degradation after heating in “Heat stability assay” (100 °C for 120 min) of 29%. The hemolysis result in the series with red blood cells was “no change”. Moreover, the “cell viability (cytotoxicity)” value in the series with Huh7 cells is reported as “no change in cell viability”. Also, in “Acid stability assay”, the acid stability result was “highly stable”. In the series with THP-1 cells, the IL-6 secretion result was “no observable increase”, the IL-8 secretion entry is listed as “no observable increase”, the IL-10 secretion result was “no observable increase” and the TNF-α secretion result is listed as “no observable increase”.
